Reference: patent US10927078B2, “Modulators of indoleamine 2,3-dioxygenase” (GLAXOSMITHKLINE INTELLECTUAL PROPERTY DEVELOPMENT LIMITED, priority 2017, dated 2021)

Chains of the proteins cited; added tags and fusions are not shown.
UniProt P14902, whole entry: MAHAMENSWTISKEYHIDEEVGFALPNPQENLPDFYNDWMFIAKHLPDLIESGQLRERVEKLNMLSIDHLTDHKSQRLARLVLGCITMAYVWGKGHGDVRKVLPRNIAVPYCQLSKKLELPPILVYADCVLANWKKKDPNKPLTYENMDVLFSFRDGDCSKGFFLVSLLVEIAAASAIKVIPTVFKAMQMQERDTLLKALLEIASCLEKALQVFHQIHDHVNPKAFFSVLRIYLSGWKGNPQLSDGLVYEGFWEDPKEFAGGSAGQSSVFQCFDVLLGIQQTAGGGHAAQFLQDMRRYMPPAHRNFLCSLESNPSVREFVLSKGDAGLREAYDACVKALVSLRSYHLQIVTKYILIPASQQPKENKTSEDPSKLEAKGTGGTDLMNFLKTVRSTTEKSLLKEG

Target: indoleamine 2, 3-dioxygenase (IDO1) (Homo sapiens, UniProt P14902)
Test: PBMC IDO1 assay (kynurenine via mass spectrometry)

Structure (SMILES): CC(C)CC(NC(=O)c1ccc(Cl)cc1)C1CCN(C(=O)Oc2cccc3cn[nH]c23)CC1 (stereo not shown)
- PBMC PXC50_: 9.3
